Measurements as given in ChEMBL document CHEMBL1134503, “Synthesis, antifolate, and antitumor activities of classical and nonclassical 2-amino-4-oxo-5-substituted-pyrrolo[2,3-d]pyrimidines” (J Med Chem, 2001).

Biological target: T1, Dihydrofolate reductase (Homo sapiens, UniProt P00374)
T1 sequence (P00374 whole entry): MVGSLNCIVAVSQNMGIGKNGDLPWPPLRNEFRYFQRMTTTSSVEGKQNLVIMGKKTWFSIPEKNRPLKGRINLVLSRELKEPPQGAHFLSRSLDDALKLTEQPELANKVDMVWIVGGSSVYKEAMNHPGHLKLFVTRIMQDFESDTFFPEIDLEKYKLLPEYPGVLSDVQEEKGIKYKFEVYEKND

`Nc1nc2[nH]cc(CCc3ccc(C(=O)N[C@@H](CCC(=O)O)C(=O)O)cc3)c2c(=O)[nH]1` [PEMETREXED] was tested, and the IC50 was 2300 nM.
